ASM inhibitor = inhibitors of human secretory acid sphingomyelinase | Potency, µM (doses to about 57.5 µM), hits mostly inhibitors | P17405 | AID 504937 | placental ASM, HMU-PC fluorogenic substrate, 60 min | hit rate 0.006% among 340,000
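HMU-PC0 cleavage (9 uM final) by human placental ASM, 60 min at 37 °C following 10 min compound exposure at RT; stopped at pH 10, fluorescence Ex 386/Em 447 nm.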
aSyn rescue = alpha-synuclein toxicity inhibition in yeast; Potency, µM (highest dose often 46.1 µM), hits mostly activators; Yeast expressing alpha-synuclein, growth rescue, BacTiter-Glo, 24 h; hit rate 0.14% among 370,000; AID 652106; further: nearly all actives have a fitted effect of over 65% in size
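Screening used galactose-induced yeast with toxic alpha-synuclein levels, exposed to compound for 24 hr at 30 deg C. Cell growth, read with BacTiter-Glo luminescence, gave the measured signal.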
Rango dissoc inh = prevents RanGTP from dissociating the Rango-importin beta complex. O95149+P62826. Biochemical FRET Rango-importin beta, RanGTP-induced dissociation. Potency, µM (doses to about 46.1 µM). hit rate 0.071% among 340,000; calls by dose curve; further: nearly all actives have a fitted effect of over 45% in size
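Rango/importin beta premix (0.1/0.25 uM final), PBS + 1 mM DTT + 0.02% Tween-20 + 0.1% BSA; cpd 5 min RT; FRET pre-read; + RanGTP-RCC1 (0.6 uM Ran, 2 mM GTP, 0.2 uM RCC1); 45 min RT; FRET post-read, ex 430, em 486/530 nm.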
TDP-43 yeast inh = rescues yeast growth from TDP-43 toxicity; TDP-43 expressing yeast growth rescue, BacTiter-Glo, 24 h; Potency, µM (top dose mostly 46.1 µM), most hits filed as activators; hit rate 1.8% among 410,000; AID 652104; further: nearly all actives have a fitted effect of over 50% in size
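Yeast expressing TDP-43 (pregrown in raffinose, seeded at OD600=0.02 in galactose medium) exposed to compounds 24 hr at 30 deg C. Growth read by BacTiter-Glo luminescence; rescue of toxicity appears as increased signal.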
Abeta rescue = compounds reversing amyloid beta toxicity in yeast; yeast expressing A-beta42, growth rescue, OD600, 48 h; response scale: 0% DMSO, 100% iron-clioquinol control; Potency, µM (titrated, usually from 46.1 µM), most hits filed as activators; hit rate 0.063% among 410,000; AID 1347071; further: nearly all actives have a fitted effect of over 55% in size
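Yeast A-beta toxicity model in growth medium with pinned compounds, 48 h at 30 C; growth read as absorbance at 600 nm. Normalized to FeCl3/clioquinol equimolar mix (positive) and DMSO (negative).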
Rango-impB inh = inhibitors of Rango-importin beta complex formation; Q14974; Rango CFP/YFP FRET sensor + importin beta, 45 min; Potency, µM (series often up to 92.2 µM); hit rate 0.031% among 340,000; AID 540263; calls by dose curve; further: nearly all actives have a fitted effect of over 15% in size
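FRET biosensor (snurportin 1 IBB flanked by EYFP and cerulean), 50 nM, with compound 5 min, then 0.125 microM importin beta in PBS, 1 mM DTT, 0.02% Tween-20, 0.1% BSA. CFP/YFP ratio read after 45 min at room temperature; pre-read flags interference.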
Numbers stand for hits; - = inactive; ? = inconclusive; . = no result; [ ] = dose if it differs, or a comment. Hits are enriched below; roughly 2% of the tested compounds scored in any of these assays. Unless noted, the call rests on the fitted dose curve; in most records, active means well fitted curve in the direction sought with a large enough effect; inconclusive means small, poorly fitted or top-dose-only effect, or another doubt; inactive means no such curve, though single readings can be large; an effect the other way counts as inactive or inconclusive.

SMILES	ASM inhibitor	aSyn rescue	Rango dissoc inh	TDP-43 yeast inh	Abeta rescue	Rango-impB inh
CC(C)(C)c1cc(NS(=O)(=O)c2ccc(Br)s2)no1	-	-	-	22µM	-	-
Cc1cc(NS(=O)(=O)c2ccc(Br)s2)no1	-	-	-	-	-	-
COc1ccc(-c2csc3ncnc(N4CCN(c5cccc(Cl)c5)CC4)c23)cc1	-	-	-	-	-	-
COc1ccc(-c2csc3ncnc(N4CCN(S(=O)(=O)c5cccs5)CC4)c23)cc1	-	-	-	13µM	-	-
Cc1cc2ncn(-c3ncnc4sc(C)c(C)c34)c2cc1C	-	-	-	?	-	?
COc1ccc(-c2csc3ncnc(N4CCN(c5cccc(OC)c5)CC4)c23)cc1	-	-	-	11µM	-	-
Cc1cc2ncn(-c3ncnc4scc(-c5ccccc5)c34)c2cc1C	-	-	-	8.9µM	-	-
c1ccc(-c2csc3ncnc(N4CCc5ccccc5C4)c23)cc1	-	-	-	11µM	-	-
CCOC(=O)c1cc(C)n(CC2CCC(C(=O)Nc3cccc(C(C)=O)c3)CC2)c1C (stereo not given)	.	.	.	-	-	.
CN(C)c1ccc(CNC(=O)CN2C(=O)C3CCCCN3c3ccc(C(=O)N4CCCC4)cc32)cc1 (stereo not given)	.	.	.	-[9.22 µM]	-	.
Cc1c(-c2nsc(NC(=O)c3cccs3)n2)nnn1-c1ccc(Br)cc1	.	.	.	-	-	.
COc1ccc(N2CCN(c3ncnc4scc(-c5ccc(C)cc5)c34)CC2)cc1	?	-	-	?	-	-
COc1ccc(N2CCN(c3ncnc4scc(-c5ccc(F)cc5)c34)CC2)cc1	.	-	-	13µM	-	-
COc1ccc(N2CCN(C(=O)CSc3nc(C)cs3)CC2)cc1	-	-	-	-	-	-
COc1ccc(N2CCN(C(=O)CSc3ncnc4scc(-c5ccc(C)cc5)c34)CC2)cc1	-	-	-	11µM	-	-
CCOc1ccc(N(C(=O)c2ccc(OC)cc2)S(=O)(=O)c2ccc3c(c2)n(C)c(=O)n3C)cc1	.	.	.	-	-	.
CN=c1scc(-c2ccc(OC)cc2)n1/N=C(\C)c1cccnc1	-	-	-	14µM	-	?
CC1(C)CC(=O)C2=C(C1)NC(Nc1nc3ccccc3o1)=NC2c1cccc(F)c1 (stereo not given)	.	-	.	.	.	.
CC1Nc2ncnc(N3CCc4ccccc4C3)c2N(Cc2ccc(Br)cc2)C1=O (stereo not given)	-	?	-	11µM	-	-
CC1Nc2ncnc(N3CCc4ccccc4C3)c2N(Cc2ccc(Cl)cc2)C1=O (stereo not given)	-	-	-	-	-	-
CCC1Nc2ncnc(N3CCc4ccccc4C3)c2N(Cc2ccc(Br)cc2)C1=O (stereo not given)	.	?	.	35µM	-	.
O=C1C(Cc2ccccc2)Nc2ncnc(N3CCc4ccccc4C3)c2N1Cc1ccccc1 (stereo not given)	-	-	-	-	-	?
COc1cc2c(NC3CCN(C)CC3)nc(N3CCCN(C)CC3)nc2cc1OCCCCCN(C)C	.	-	.	.	.	.
Cc1cc(Nc2cccc(Cl)c2C)n2nc(Cc3ccccc3)nc2n1	.	.	.	22µM	-	.
Cc1cc(Nc2ccc(C)c(Cl)c2)n2nc(Cc3ccccc3)nc2n1	.	.	.	22µM	-	.
SMILES	ASM inhibitor	aSyn rescue	Rango dissoc inh	TDP-43 yeast inh	Abeta rescue	Rango-impB inh
Cc1cc(Nc2ccccc2C)n2nc(Cc3ccc(Cl)cc3)nc2n1	.	.	.	18µM	-	.
Cc1cc(Nc2ccccc2F)n2nc(Cc3ccc(Cl)cc3)nc2n1	.	.	.	-	-	.
CCn1c(=O)c(=O)n(CC)c2cc(N3CCCCC3)c(NC(=O)c3cccc(OC)c3)cc21	.	.	.	-	-	.
O=C(COc1ccccc1C(=O)Nc1cccc(F)c1)Nc1ccc(Br)cc1	.	-	.	.	.	.
Cc1ccc(Cl)cc1NC(=O)Cn1c(=O)n(CCCS(=O)(=O)C2CCCCC2)c(=O)c2ccccc21	.	.	.	-	-	.
Brc1cccc[n+]1Cc1ccc(C[n+]2ccccc2Br)cc1	.	-	.	.	.	.
Cc1c(C(=O)N2CCN(CC(=O)Nc3ccccc3Cl)CC2)oc2ccc(Br)cc12	?	-	-	13µM	-	-
Cc1c(C(=O)N2CCCCC2)oc2ccc(Br)cc12	-	-	-	?	-	-
CCCS(=O)(=O)NCCc1cc2c(C)ccc(C)c2[nH]c1=O	-	-	-	4.5µM	-	-
O=C(Nc1ccc2oc(-c3cccc4c(Br)cccc34)nc2c1)c1ccc(F)cc1	.	.	.	-	-	.
CCOc1cc(/C=N/NC(=O)CN2CCCCC2)ccc1OCc1cccc(Cl)c1	-	-	-	13µM	-	-
CCOc1cc(/C=N/NC(=O)CN2CCCCC2)ccc1OCc1ccc(Cl)cc1	-	-	-	-	-	-
COc1ccc(N2C(=O)CC(N3CCCCC3)C2=O)cc1 (stereo not given)	-	-	-	?	-	-
COc1ccc(N2C(=O)CC(N3CCC(O)(c4cccc(C(F)(F)F)c4)CC3)C2=O)cc1 (stereo not given)	-	-	-	18µM	-	-
CCN=c1scc(-c2ccco2)n1/N=C/c1ccc(O)cc1	-	-	-	18µM	-	-
COc1ccc(S(=O)(=O)NCCSCc2ccccc2C)cc1Br	-	?	-	16µM	-	-
CCOc1cccc(C(=O)Nc2c(C(=O)c3ccc(OC)cc3)oc3ccccc23)c1	.	.	.	-	-	.
CC(C)c1ccc(NC(=O)C2CC(=O)N(C(C)C)C2)cc1 (stereo not given)	-	-	-	-	-	4.1µM
Fc1ccc(N/N=C2/CC(c3ccccc3)Oc3ccccc32)c(F)c1 (stereo not given)	-	-	-	-	-	-
O=C1CC(c2ccccc2)Oc2ccccc21 (stereo not given)	-	-	-	14µM	-	-
CNC(=S)N/N=C1\CC(c2ccccc2)Oc2ccccc21 (stereo not given)	-	-	-	22µM	-	-
O=C1CC(c2cccc(O)c2)Oc2ccccc21 (stereo not given)	-	-	-	?	-	-
COc1cc(NC(=O)N2CCC(CN3CCCCCC3)CC2)cc(OC)c1OC	.	.	.	-	-	.
CCc1c(-c2n[nH]c(=S)n2Cc2ccccc2)csc1C	-	-	-	11µM	-	-
CC1C(=O)N(Cc2cn(Cc3ccco3)nn2)CCS(=O)(=O)N1Cc1ccc(-c2ccccc2)cc1 (stereo not given)	.	-	.	-	-	.
CC1C(=O)N(Cc2cn(CCC3OCCO3)nn2)CCS(=O)(=O)N1Cc1ccc(-c2ccc(Cl)cc2)cc1 (stereo not given)	.	-	.	28µM	-	.

Compound activity (PubChem BioAssay)
